Test results taken from patent US20240002434A1, “METHODS OF INACTIVATING VIRAL CONTAMINANTS” (ICHNOS SCIENCES SA, priority 2017, published 2024).

The chains behind the UniProt entries cited, without tags or fusion partners. Residues count along the entry.
UniProt P07766, 23-48 limits assumed: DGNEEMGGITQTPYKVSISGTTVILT

Experiments:
[1] = molecular target: hsCD38 (Homo sapiens, UniProt P28907); test: Binding affinity assay of BEAT®2 to CD38
Procedure: (§1) Two antigens targets were tested, the CD38 and CD3.
(§2) Some samples of the ones described above, were selected to be tested by surface plasmon resonance (Table 37). […] In addition, cell based functional assay were also performed to directly verify the impact of high pH on BEAT®2 molecule activity.

[2] = molecular target: T1, hsCD3e 1-26Fc (Homo sapiens, UniProt P07766); test: Binding affinity assay of BEAT®2 to CD3; conditions: human CD3ε 1-26 Nterm
T1 construct: its targets CD3ε 1-26-Fc and CD38
Procedure: as §1, §2

- Relative KD (% RS) ([1]; PA eluate): 100 % RS
- Relative KD (% RS) ([1]; high pH t0): 104 % RS
- Relative KD (% RS) ([1]; high pH t1): 113 % RS
- Relative KD (% RS) ([1]; high pH t2): 100 % RS
- Kd ([2]; PA eluate): 42.2 nM
- Relative KD (% RS) ([2]; PA eluate): 100 % RS
- Kd ([2]; high pH t0): 28.5 nM
- Relative KD (% RS) ([2]; high pH t0): 68 % RS
- Kd ([2]; high pH t1): 39.1 nM
- Relative KD (% RS) ([2]; high pH t1): 93 % RS
- Kd ([2]; high pH t2): 41.1 nM
- Relative KD (% RS) ([2]; high pH t2): 97 % RS
B1: BEAT ®2 (protein)
chain 1: DIQMTQSPSSLSASVGDRVTITCQASQDVITSVAWYQQKPGKAPKLLIYSASYRYTGVPSRFSGSGSGTDFTFTISSLQPEDIATYYCQQHYTIPLTFGQGTKLEIKRTVAAPSVFIFPPSDEQLKSGTASVVCLLNNFYPREAKVQWKVDNALQSGNSQESVTEQDSKDSTYSLSSTLTLSKADYEKHKVYACEVTHQGLSSPVTKSFNRGEC
chain 2: QVTLKESGPTLVKPTQTLTLTCTFSGLSLSTSGKGVGWIRQPPGKALEWLAHIWWDDDKRYNPALKSRLTITKDTSKNQVVLTMTNMDPVDTATYYCARIELGRSYVMDYWGQGTLVTVSSASTKGPSVFPLAPSSKSTSGGTAALGCLVKDYFPEPVTVSWNSGALTSGVHTFPAVLQSSGLYSLSSVVTVPSSSLGTQTYICNVNHKPSNTKVDKKVEPKSCDKTHTCPPCPAPEAAGGPSVFLFPPKPKDTLMISRTPEVTCVVVDVSHEDPEVQFKWYVDGVEVHNAKTKPREEQYNSTFRVVSVLTVLHQDWLNGKEYKCKVSNKALPAPIEKTISKTKGQPREPAVYTLPPSREEMTKNQVKLVCLVTGFYPSDIAVEWESSGQPENNYYTTPPMLDSDGSFSLVSWLNVDKSRWQQGNIFSCSVMHEALHNRFTQKSLSLSPG
chain 3: EVQLVESGGGLVQPGGSLRLSCAASGFTFNTYAMNWVRQAPGKGLEWVARIRSKYNNYATYYADSVKGRFTISRDDSKNTLYLQMNSLRAEDTAVYYCVRHGNFGNSYVSYFAYWGQGTTVTVSSGGGGSGGGGSGGGGSEIVVTQSPATLSVSPGERATLSCRSSTGAVTESNYANWVQEKPGQAFRGLIGGANKRAPGVPARFSGSLSGDEATLTISSLQSEDFAVYYCALFYSNTWVFGQGTKLEIKGGGGTDKTHTCPPCPAPEAAGGPSVFLFPPKPKDTLMISRTPEVTCVVVDVSHEDPEVKFNWYVDGVEVHNAKTKPREEQYNSTYRVVSVLTVLHQDWLNGKEYKCKVSNKALPAPIEKTISKAKGQPREPEVATFPPSRDELTKNQVTLVCLVTGFYPSDIAVEWESNGQPENNYKTDPPLLESQGSFALSSRLRVDKSRWQQGNVFSCSVMHEALHNHYTQKSLSLSPG
